From patent US10995099B2, “Compounds and their uses as ACC inhibitors” (NANJING RUIJIE PHARMATECH CO., LTD., priority 2017, dated 2021)

Sequences of proteins named here, by UniProt entry; tags and fusion partners are left off.
UniProt O00763, whole entry: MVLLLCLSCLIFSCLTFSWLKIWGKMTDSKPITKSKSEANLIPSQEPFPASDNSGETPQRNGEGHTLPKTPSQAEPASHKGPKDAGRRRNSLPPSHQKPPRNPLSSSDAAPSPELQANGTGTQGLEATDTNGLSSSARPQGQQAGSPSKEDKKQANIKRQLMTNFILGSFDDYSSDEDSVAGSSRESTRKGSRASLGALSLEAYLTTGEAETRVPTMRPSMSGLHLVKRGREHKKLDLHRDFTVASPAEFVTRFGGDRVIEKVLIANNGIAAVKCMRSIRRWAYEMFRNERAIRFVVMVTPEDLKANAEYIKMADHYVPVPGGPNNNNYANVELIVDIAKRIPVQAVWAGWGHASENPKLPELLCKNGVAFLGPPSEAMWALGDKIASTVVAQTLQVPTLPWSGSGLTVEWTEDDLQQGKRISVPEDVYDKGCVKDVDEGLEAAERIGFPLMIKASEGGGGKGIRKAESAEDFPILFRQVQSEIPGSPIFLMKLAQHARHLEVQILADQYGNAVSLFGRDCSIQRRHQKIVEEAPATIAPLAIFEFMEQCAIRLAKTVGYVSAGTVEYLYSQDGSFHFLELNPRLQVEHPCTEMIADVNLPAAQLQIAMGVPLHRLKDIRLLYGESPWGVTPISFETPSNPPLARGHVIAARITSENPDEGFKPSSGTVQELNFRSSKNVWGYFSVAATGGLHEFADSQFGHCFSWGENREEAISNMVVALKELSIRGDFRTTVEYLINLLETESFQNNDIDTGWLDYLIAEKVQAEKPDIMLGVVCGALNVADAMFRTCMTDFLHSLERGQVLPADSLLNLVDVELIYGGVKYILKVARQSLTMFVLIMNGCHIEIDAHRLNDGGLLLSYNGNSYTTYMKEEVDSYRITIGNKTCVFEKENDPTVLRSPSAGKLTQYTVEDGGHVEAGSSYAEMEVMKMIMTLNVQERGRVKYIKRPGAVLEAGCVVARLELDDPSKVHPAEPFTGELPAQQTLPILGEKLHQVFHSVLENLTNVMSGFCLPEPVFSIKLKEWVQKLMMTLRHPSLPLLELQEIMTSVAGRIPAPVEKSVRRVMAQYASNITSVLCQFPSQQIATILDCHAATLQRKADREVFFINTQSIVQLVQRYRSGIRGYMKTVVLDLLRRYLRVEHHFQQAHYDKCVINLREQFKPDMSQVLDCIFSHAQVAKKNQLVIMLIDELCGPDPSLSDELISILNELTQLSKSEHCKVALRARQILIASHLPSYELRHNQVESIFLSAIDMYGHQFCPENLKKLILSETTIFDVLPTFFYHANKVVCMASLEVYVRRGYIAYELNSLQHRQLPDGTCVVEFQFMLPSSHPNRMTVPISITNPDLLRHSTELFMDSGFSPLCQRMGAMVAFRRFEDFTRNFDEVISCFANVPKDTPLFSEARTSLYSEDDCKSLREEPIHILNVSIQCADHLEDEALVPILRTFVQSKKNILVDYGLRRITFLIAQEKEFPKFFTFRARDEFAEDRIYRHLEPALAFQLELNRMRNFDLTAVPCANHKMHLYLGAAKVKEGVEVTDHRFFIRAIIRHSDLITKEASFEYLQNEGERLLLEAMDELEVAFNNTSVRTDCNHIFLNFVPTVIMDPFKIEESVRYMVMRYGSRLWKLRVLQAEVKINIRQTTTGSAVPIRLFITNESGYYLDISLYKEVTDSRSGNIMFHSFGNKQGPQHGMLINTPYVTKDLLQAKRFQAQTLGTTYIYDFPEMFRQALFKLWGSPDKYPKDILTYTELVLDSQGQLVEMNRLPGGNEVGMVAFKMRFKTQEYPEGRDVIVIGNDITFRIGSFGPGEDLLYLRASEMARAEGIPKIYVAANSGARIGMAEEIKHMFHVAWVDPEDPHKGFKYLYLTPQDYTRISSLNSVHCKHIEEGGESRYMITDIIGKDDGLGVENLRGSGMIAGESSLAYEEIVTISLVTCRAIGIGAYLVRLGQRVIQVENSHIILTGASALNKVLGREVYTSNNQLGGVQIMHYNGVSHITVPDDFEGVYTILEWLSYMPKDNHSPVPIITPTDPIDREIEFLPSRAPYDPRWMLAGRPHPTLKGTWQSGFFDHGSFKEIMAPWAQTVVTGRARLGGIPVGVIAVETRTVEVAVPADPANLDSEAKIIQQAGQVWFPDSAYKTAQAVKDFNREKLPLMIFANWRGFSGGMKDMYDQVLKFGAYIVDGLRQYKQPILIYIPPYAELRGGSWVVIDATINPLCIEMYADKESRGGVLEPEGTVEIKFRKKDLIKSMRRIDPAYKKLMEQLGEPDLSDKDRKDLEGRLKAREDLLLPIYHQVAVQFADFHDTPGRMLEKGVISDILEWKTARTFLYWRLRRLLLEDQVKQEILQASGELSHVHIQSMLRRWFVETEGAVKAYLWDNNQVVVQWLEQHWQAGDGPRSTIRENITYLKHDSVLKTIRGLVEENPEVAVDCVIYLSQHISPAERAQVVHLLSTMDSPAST

How the values were obtained:
ACC2 = ACC2 (Homo sapiens (Human), UniProt O00763); test: In vitro ACC inhibition assay (ADP-Glo), ACC2; type: biochemical; details: read-out: IC50 (μM) ND630/RJ-cmps(%); ND630 versus RJ compounds; isoform not given
HepG2 = test: EC50 in HepG2; type: cell-based
[1] = read-out: EC50 (μM) ND630/RJ-cmps(%), ND630 versus RJ compounds
[2] = read-out: EC50 (μM) HepG2, HepG2

IC50 (ACC2) [µM]	EC50 (HepG2; [1]) [µM]	EC50 (HepG2; [2]) [µM]	Compound
0.005 to 0.01	0.1 to 1		COc1ccccc1[C@H](Cn1c(=O)n(C2(C(=O)O)CC2)c(=O)c2c(C)c(C(=O)N(C)C)sc21)OC1CCOCC1
0.005 to 0.01	0.1 to 1		CNC(=O)c1sc2c(c1C)c(=O)n(C1(C(=O)O)CC1)c(=O)n2C[C@H](OC1CCOCC1)c1ccccc1OC
0.005 to 0.01			COc1ccccc1[C@H](Cn1c(=O)n(C2(C(=O)O)CC2)c(=O)c2c(C)csc21)OC1CCOCC1 [Example 17]
0.005 to 0.01	0.01 to 0.1	> 1	COc1ccccc1C(Cn1c(=O)n(C2(C(=O)O)CC2)c(=O)c2c(C)c(C#N)sc21)OC1CCOCC1 (centres unmarked)
0.005 to 0.01			COc1ccccc1C(Cn1c(=O)n(C2(C(=O)O)CC2)c(=O)c2c(C)c(C(F)(F)F)sc21)OC1CCOCC1 (centres unmarked)

Further lines, the molecule ahead of its results:

Compound	IC50 (ACC2) [µM]	EC50 (HepG2; [1]) [µM]	EC50 (HepG2; [2]) [µM]
COc1ccccc1C(Cn1c(=O)n(C2(CC(=O)N3CCN(C)CC3)CC2)c(=O)c2c(C)c(Br)sc21)OC1CCOCC1 (centres unmarked)	0.003 to 0.005	0.1 to 1	
COc1ccccc1C(Cn1c(=O)n(C2(CC(N)=O)CC2)c(=O)c2c(C)c(-c3ncco3)sc21)OC1CCOCC1 (centres unmarked)	0.005 to 0.01	> 1	< 0.01
CNC(=O)CC1(n2c(=O)c3c(C)c(-c4ncco4)sc3n(CC(OC3CCOCC3)c3ccccc3OC)c2=O)CC1 (centres unmarked)	0.005 to 0.01	> 1	0.01 to 0.1
COc1ccccc1C(Cn1c(=O)n(C2(C(=O)C(=O)O)CC2)c(=O)c2c(C)c(Br)sc21)OC1CCOCC1 (centres unmarked)	0.005 to 0.01	0.01 to 0.1	0.1 to 1

Like-named read-outs stand apart in the source and are kept apart here.
